The nature of the data set: physchem.

In turn, `OCCc1ccccc1` [2-phenylethanol] yielded a logP of 1.2.

As usually defined, the logP is the decadic logarithm of the partition coefficient of the neutral form, usually between octanol and water.

(Values after patent US6916432B2, “Hair bleach composition and hair dye composition” (Kao Corporation, priority 2000, dated 2005).)
